The values below are quoted from earlier work in publication PMC7747014 (Journal of medicinal chemistry, 2015).

Amino acid sequences for entries named in this document (tags omitted).
UniProt Q9NUW8, whole entry: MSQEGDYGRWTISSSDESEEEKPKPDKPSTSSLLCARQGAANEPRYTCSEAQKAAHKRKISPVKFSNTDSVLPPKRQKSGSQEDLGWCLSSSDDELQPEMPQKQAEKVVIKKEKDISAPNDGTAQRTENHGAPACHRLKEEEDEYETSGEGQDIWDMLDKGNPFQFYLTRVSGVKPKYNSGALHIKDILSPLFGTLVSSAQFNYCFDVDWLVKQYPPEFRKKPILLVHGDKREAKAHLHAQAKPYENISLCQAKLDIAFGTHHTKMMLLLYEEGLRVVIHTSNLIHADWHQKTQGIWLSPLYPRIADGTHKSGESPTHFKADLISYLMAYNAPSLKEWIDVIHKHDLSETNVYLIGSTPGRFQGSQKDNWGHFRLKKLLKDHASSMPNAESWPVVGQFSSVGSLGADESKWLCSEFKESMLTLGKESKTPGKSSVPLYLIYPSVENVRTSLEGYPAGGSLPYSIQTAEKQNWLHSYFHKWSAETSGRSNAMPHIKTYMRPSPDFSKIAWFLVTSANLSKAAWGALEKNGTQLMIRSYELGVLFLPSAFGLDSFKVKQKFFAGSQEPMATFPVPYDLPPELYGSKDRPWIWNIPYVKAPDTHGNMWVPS

pIC50: −log10 of the molar value.

The data set deals with recombinant TDP1 (Homo sapiens, UniProt Q9NUW8). The settings on record: read-out: TDP1 inhibition; semiquantitative IC50 scale; cited from earlier work.

Consider `COc1cccc2c1-c1c(c3ccc([N+](=O)[O-])cc3c(=O)n1CCCN)C2=O` [Compound 4], for which the pIC50 was 4.92 to 6.00.

In the case of `COc1ccc2c(c1)C(=O)c1c-2n(CCCN)c(=O)c2cc([N+](=O)[O-])ccc12` [Compound 5], the pIC50 is 4.92 to 6.00.
